Key:
[1] = Nonclinical PK of Compound 1 and 2,4-dinitrophenol after oral administration
[2] = Nonclinical toxicology program (acute, repeat-dose, genotoxicity), overall findings; details: nonclinical toxicity studies
[3] = Single-dose tolerability and repeat-dose toxicity, dogs; details: up to 61 days
[4] = SAD study: indirect calorimetry, resting metabolic rate (RMR); details: single doses as high as 1400 mg, first 33 hours of IC assessments
[5] = Phase 2a trial: anticipated increase in resting energy expenditure
[6] = MAD study: body weight and average glucose level
[7] = Phase 2a trial: abdominal MRI subcutaneous adipose tissue (Table 13); details: FAS population, difference is placebo minus dose group
[8] = Preliminary investigations into drug-drug interaction potential
[9] = Phase 2a trial: glycated albumin; details: 150, 300, 450 mg QD, 61 days (p<0.0001, high dose)
[10] = Phase 2a trial: abdominal MRI visceral adipose tissue (Table 12); details: FAS population, difference is placebo minus dose group
[11] = Phase 2a trial: InBody body weight (Tables 10, 11); details: for InBody body weight change at Day 61, Difference of LS Mean and Placebo (SEM) / InBody body weight mean change from baseline at Day 61, LS Mean (SEM): FAS population
[12] = Phase 2a trial: liver fat by MRI-PDFF (change and responder rate; Tables 7-9); details: for Non-responder (MRI-PDFF), number of subjects / Non-responder (MRI-PDFF), percent of subjects / Responder (>30% liver fat reduction by MRI-PDFF), number of subjects / Responder (>30% liver fat reduction by MRI-PDFF), percent of subjects: Day 61; for MRI-PDFF change at Day 61, Difference of LS Mean and Placebo / MRI-PDFF mean change from baseline at Day 61, LS Mean (ANCOVA): FAS population; for relative reduction in liver fat (MRI-PDFF) / responder rate (>30% relative reduction of liver fat): 61 days
[13] = Phase 2a trial: MRI liver volume (Table 14); details: abdominal MRI, FAS population, difference is placebo minus dose group
[14] = test system: rat model of metabolic syndrome (Zucker diabetic fatty rats); test: Rat model of metabolic syndrome (Zucker diabetic fatty rats), oral administration
[15] = Phase 2a trial: high sensitivity C-reactive protein (hsCRP) (Table 15); details: for hsCRP change from baseline, Difference of LS Mean and Placebo (SEM) / hsCRP mean change from baseline, LS Mean (SEM): Day 61, FAS population
[16] = MAD study: resting energy expenditure (REE) / RMR
[17] = 150 mg, FAS Population (N = 20)
[18] = 150 mg, HbA1c 5.7%-9.0% (N = 7)
[19] = 300 mg, FAS Population (N = 21)
[20] = 300 mg, HbA1c 5.7%-9.0% (N = 8)
[21] = 450 mg, FAS Population (N = 18)
[22] = 450 CM1, HbA1c 5.7%-9.0% (N = 7)
[23] = All CM1 doses, FAS Population (N = 59)
[24] = All CM1 doses, HbA1c 5.7%-9.0% (N = 22)

Cn1c(COc2ccc([N+](=O)[O-])cc2[N+](=O)[O-])cnc1[N+](=O)[O-]
AUC/Cmax ratios for 2,4-dinitrophenol versus administration of 2,4-dinitrophenol directly ([1]; oral Compound 1): significantly higher | Tmax for 2,4-dinitrophenol versus direct oral administration of 2,4-dinitrophenol ([1]; oral Compound 1): substantially delayed | absorption and conversion ([1]; oral, all species (mice, rats, dogs)): rapidly absorbed with conversion to 2,4-dinitrophenol | deaths or effects on body weight, food consumption, body temperature, ophthalmology, electrocardiograms, hematology, clinical chemistry, urinalysis [2]: no Compound 1-related deaths or effects | well tolerated dose [3]: up to 100 mg/kg/day | maximum increase in RMR [4]: approximately 20% | anticipated increase in resting energy expenditure ([5]; 150 mg): 10% | anticipated increase in resting energy expenditure ([5]; 300 mg): 20% | anticipated increase in resting energy expenditure ([5]; 450 mg): 30% | body weight ([6]; MAD study (FIG. 8)): reduces | glucose level ([6]; MAD study (FIG. 9)): reduces | Mean Diff. (Uncorrected Fisher's LSD), subcutaneous adipose tissue, percent change from baseline ([7]; Placebo vs. 150 mg once daily): 1.237% | Mean Diff. (Uncorrected Fisher's LSD), subcutaneous adipose tissue, percent change from baseline ([7]; Placebo vs. 300 mg once daily): 3.327% | Mean Diff. (Uncorrected Fisher's LSD), subcutaneous adipose tissue, percent change from baseline ([7]; Placebo vs. 450 mg once daily): 3.811% | drug-drug interaction potential [8]: have not revealed the potential for drug-drug interactions | glycated albumin [9]: Dose dependent reduction | Mean Diff. (Uncorrected Fisher's LSD), visceral adipose tissue, percent change from baseline ([10]; Placebo vs. 150 mg once daily): −0.1480% | Mean Diff. (Uncorrected Fisher's LSD), visceral adipose tissue, percent change from baseline ([10]; Placebo vs. 300 mg once daily): 4.442% | Mean Diff. (Uncorrected Fisher's LSD), visceral adipose tissue, percent change from baseline ([10]; Placebo vs. 450 mg once daily): 5.513% | InBody body weight change at Day 61, Difference of LS Mean and Placebo (SEM) ([11]; CM1 150 mg (N = 20)): −0.93 (1.467) | InBody body weight mean change from baseline at Day 61, LS Mean (SEM) ([11]; CM1 150 mg (N = 20)): −1.14 (1.028) | InBody body weight change at Day 61, Difference of LS Mean and Placebo (SEM) ([11]; CM1 300 mg (N = 21)): −3.71 (1.435) | InBody body weight mean change from baseline at Day 61, LS Mean (SEM) ([11]; CM1 300 mg (N = 21)): −3.92 (0.981) | InBody body weight change at Day 61, Difference of LS Mean and Placebo (SEM) ([11]; CM1 450 mg (N = 18)): −5.83 (1.471) | InBody body weight mean change from baseline at Day 61, LS Mean (SEM) ([11]; CM1 450 mg (N = 18)): −6.04 (1.034) | Body weight observed, Day 61, difference Placebo vs. dose ([11]; Placebo vs. 150 mg): 1.131 | Body weight observed, Day 61, difference Placebo vs. dose ([11]; Placebo vs. 300 mg): 3.904 | Body weight observed, Day 61, difference Placebo vs. dose ([11]; Placebo vs. 450 mg): 6.014 | Non-responder (MRI-PDFF), number of subjects [12, 17]: 10 | Non-responder (MRI-PDFF), percent of subjects [12, 17]: (50.0%) | Responder (>30% liver fat reduction by MRI-PDFF), number of subjects [12, 17]: 8 | Responder (>30% liver fat reduction by MRI-PDFF), percent of subjects [12, 17]: (40.0%) | Non-responder (MRI-PDFF), number of subjects [12, 18]: 3 | Non-responder (MRI-PDFF), percent of subjects [12, 18]: (42.9%) | Responder (>30% liver fat reduction by MRI-PDFF), number of subjects [12, 18]: 3 | Responder (>30% liver fat reduction by MRI-PDFF), percent of subjects [12, 18]: (42.9%) | Non-responder (MRI-PDFF), number of subjects [12, 19]: 5 | Non-responder (MRI-PDFF), percent of subjects [12, 19]: (23.8%) | Responder (>30% liver fat reduction by MRI-PDFF), number of subjects [12, 19]: 15 | Responder (>30% liver fat reduction by MRI-PDFF), percent of subjects [12, 19]: (71.4%) | Non-responder (MRI-PDFF), number of subjects [12, 20]: 1 | Non-responder (MRI-PDFF), percent of subjects [12, 20]: (12.5%) | Responder (>30% liver fat reduction by MRI-PDFF), number of subjects [12, 20]: 6 | Responder (>30% liver fat reduction by MRI-PDFF), percent of subjects [12, 20]: (75.0%) | Non-responder (MRI-PDFF), number of subjects [12, 21]: 5 | Non-responder (MRI-PDFF), percent of subjects [12, 21]: (27.8%) | Responder (>30% liver fat reduction by MRI-PDFF), number of subjects [12, 21]: 13 | Responder (>30% liver fat reduction by MRI-PDFF), percent of subjects [12, 21]: (72.2%) | Non-responder (MRI-PDFF), number of subjects [12, 22]: 1 | Non-responder (MRI-PDFF), percent of subjects [12, 22]: (14.3%) | Non-responder (MRI-PDFF), number of subjects [12, 23]: 20 | Non-responder (MRI-PDFF), percent of subjects [12, 23]: (33.9%) | Non-responder (MRI-PDFF), number of subjects [12, 24]: 5 | Non-responder (MRI-PDFF), percent of subjects [12, 24]: (22.74%) | MRI-PDFF percent change from Baseline to Day 61, Mean ([12]; CM1 150 mg (N = 20)): −33.389% | MRI-PDFF percent change from Baseline to Day 61, Median ([12]; CM1 150 mg (N = 20)): −32.830% | MRI-PDFF change at Day 61, Difference of LS Mean and Placebo ([12]; CM1 150 mg): −5.21 | MRI-PDFF mean change from baseline at Day 61, LS Mean (ANCOVA) ([12]; CM1 150 mg): −4.64 | MRI-PDFF percent change from Baseline to Day 61, Mean ([12]; CM1 300 mg (N = 21)): −42.958% | MRI-PDFF percent change from Baseline to Day 61, Median ([12]; CM1 300 mg (N = 21)): −41.400% | MRI-PDFF change at Day 61, Difference of LS Mean and Placebo ([12]; CM1 300 mg): −6.77 | MRI-PDFF mean change from baseline at Day 61, LS Mean (ANCOVA) ([12]; CM1 300 mg): −6.21 | MRI-PDFF percent change from Baseline to Day 61, Mean ([12]; CM1 450 mg (N = 18)): −40.369% | MRI-PDFF percent change from Baseline to Day 61, Median ([12]; CM1 450 mg (N = 18)): −42.335% | MRI-PDFF change at Day 61, Difference of LS Mean and Placebo ([12]; CM1 450 mg): −6.60 | MRI-PDFF mean change from baseline at Day 61, LS Mean (ANCOVA) ([12]; CM1 450 mg): −6.03 | relative reduction in liver fat (MRI-PDFF) ([12]; high dose (450 mg QD)): 40% | responder rate (>30% relative reduction of liver fat) ([12]; high dose (450 mg QD)): 72% | relative reduction in liver fat (MRI-PDFF) ([12]; low dose (150 mg QD)): 33% | responder rate (>30% relative reduction of liver fat) ([12]; low dose (150 mg QD)): 40% | relative reduction in liver fat (MRI-PDFF) ([12]; mid dose (300 mg QD)): 43% | responder rate (>30% relative reduction of liver fat) ([12]; mid dose (300 mg QD)): 71% | Mean Diff. (Uncorrected Fisher's LSD), liver volume, percent change from baseline ([13]; Placebo vs. 150 mg once daily): 3.669% | Mean Diff. (Uncorrected Fisher's LSD), liver volume, percent change from baseline ([13]; Placebo vs. 300 mg once daily): 6.949% | Mean Diff. (Uncorrected Fisher's LSD), liver volume, percent change from baseline ([13]; Placebo vs. 450 mg once daily): 6.173% | dose level demonstrating efficacy [14]: ≥ 0.5 mg/kg/day | hsCRP change from baseline, Difference of LS Mean and Placebo (SEM) ([15]; 150 mg): −0.79 (0.656) | hsCRP mean change from baseline, LS Mean (SEM) ([15]; 150 mg): −0.22 (0.464) | hsCRP change from baseline, Difference of LS Mean and Placebo (SEM) ([15]; 300 mg): −1.60 (0.640) | hsCRP mean change from baseline, LS Mean (SEM) ([15]; 300 mg): −1.02 (0.440) | hsCRP change from baseline, Difference of LS Mean and Placebo (SEM) ([15]; 450 mg): −2.22 (0.655) | hsCRP mean change from baseline, LS Mean (SEM) ([15]; 450 mg): −1.65 (0.460) | high sensitivity C-reactive protein (hsCRP) ([15]; 150, 300, 450 mg QD, 61 days (p<0.005, high dose)): Dose dependent reduction | increase in RMR ([16]; 200 mg daily oral, by Day 7, sustained to day 15, MAD cohort 1): approximately 10% | anticipated increase in RMR ([16]; 400 mg QD for 14 days): 20% | anticipated increase in RMR ([16]; 550 mg QD projected dose): 30% | increase in resting energy expenditure (REE) compared to placebo ([16]; MAD QD dosing period (FIG. 7)): about 29%

Source: US20250177353A1 (priority 2021, published 2025)
